Cyclic peptide permeability, from CycPeptMPDB

Values of Kelly et al. 2021, doi:10.1021/jacs.0c06115, as listed in CycPeptMPDB.

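The data file gives no further conditions (lipid, pH, time, direction or concentration), and values from different papers need not be comparable. The list need not hold all peptides of the study. Entries at the database's floor value (log10 P of -10) are not listed.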

PAMPA is the parallel artificial membrane permeability assay, which has no cells and reads passive diffusion. MDCK: transport across canine kidney epithelial cells. Permeability is given as log10 of P in cm/s; higher (less negative) is more permeable. Cells with "n/a" have no entry in this list.

| SMILES | PAMPA (log10 cm/s) | MDCK (log10 cm/s) |
|---|---|---|
| CC(=O)N1CCC[C@H]1C(=O)N(C)[C@@H](CC(C)C)C(=O)N[C@@H]1C(=O)N(C)[C@H](CC(C)C)C(=O)N(C)[C@@H](CC(C)C)C(=O)N(C)[C@H](CC(C)C)C(=O)N(C)[C@H](C)C(=O)N[C@H](CC(C)C)C(=O)N2CCC[C@H]2C(=O)O[C@@H]1C | -5.20 | n/a |
| CC(=O)N1CCC[C@@H]1C(=O)N(C)[C@H](CC(C)C)C(=O)N[C@@H]1C(=O)N(C)[C@H](CC(C)C)C(=O)N(C)[C@@H](CC(C)C)C(=O)N[C@@H](CC(C)C)C(=O)N(C)[C@@H](C)C(=O)N[C@H](CC(C)C)C(=O)N2CCC[C@@H]2C(=O)O[C@@H]1C | -5.02 | n/a |
| CC(=O)N1CCC[C@H]1C(=O)N(C)[C@H](CC(C)C)C(=O)N[C@@H]1C(=O)N(C)[C@@H](CC(C)C)C(=O)N(C)[C@H](CC(C)C)C(=O)N(C)[C@H](CC(C)C)C(=O)N[C@@H](C)C(=O)N[C@@H](CC(C)C)C(=O)N2CCC[C@@H]2C(=O)O[C@@H]1C | -5.69 | n/a |
| CC(=O)N1CCC[C@@H]1C(=O)N(C)[C@@H](CC(C)C)C(=O)N[C@@H]1C(=O)N(C)[C@@H](CC(C)C)C(=O)N[C@H](CC(C)C)C(=O)N[C@H](CC(C)C)C(=O)N[C@@H](C)C(=O)N[C@@H](CC(C)C)C(=O)N2CCC[C@@H]2C(=O)O[C@@H]1C | -6.63 | n/a |
| CC(=O)N1CCC[C@H]1C(=O)N(C)[C@@H](CC(C)C)C(=O)N[C@@H]1C(=O)N[C@H](CC(C)C)C(=O)N(C)[C@H](CC(C)C)C(=O)N[C@H](CC(C)C)C(=O)N[C@@H](C)C(=O)N[C@@H](CC(C)C)C(=O)N2CCC[C@H]2C(=O)O[C@@H]1C | -6.12 | n/a |
| CC(=O)N1CCC[C@H]1C(=O)N(C)[C@H](CC(C)C)C(=O)N[C@@H]1C(=O)N[C@@H](CC(C)C)C(=O)N(C)[C@H](CC(C)C)C(=O)N[C@H](CC(C)C)C(=O)N(C)[C@@H](C)C(=O)N[C@H](CC(C)C)C(=O)N2CCC[C@@H]2C(=O)O[C@@H]1C | -5.92 | n/a |
| CC(=O)N1CCC[C@@H]1C(=O)N(C)[C@H](CC(C)C)C(=O)N[C@@H]1C(=O)N[C@@H](CC(C)C)C(=O)N(C)[C@@H](CC(C)C)C(=O)N(C)[C@H](CC(C)C)C(=O)N(C)[C@H](C)C(=O)N[C@@H](CC(C)C)C(=O)N2CCC[C@H]2C(=O)O[C@@H]1C | -6.13 | n/a |
| CC(=O)N1CCC[C@H]1C(=O)N(C)[C@@H](CC(C)C)C(=O)N[C@@H]1C(=O)N(C)[C@@H](CC(C)C)C(=O)N(C)[C@H](CC(C)C)C(=O)N[C@H](CC(C)C)C(=O)N(C)[C@@H](C)C(=O)N[C@H](CC(C)C)C(=O)N2CCC[C@H]2C(=O)O[C@@H]1C | -6.05 | n/a |
| CC(=O)N1CCC[C@H]1C(=O)N[C@@H]1C(=O)N[C@H](CC(C)C)C(=O)N(C)[C@@H](CC(C)C)C(=O)N(C)[C@@H](CC(C)C)C(=O)N(C)[C@H](CC(C)C)C(=O)N(C)[C@H](C)C(=O)N[C@@H](CC(C)C)C(=O)N2CCC[C@@H]2C(=O)O[C@@H]1C | -5.09 | n/a |
| CC(=O)N1CCC[C@H]1C(=O)N(C)[C@H](CC(C)C)C(=O)N[C@@H]1C(=O)N[C@H](CC(C)C)C(=O)N(C)[C@@H](CC(C)C)C(=O)N[C@H](CC(C)C)C(=O)N(C)[C@H](C)C(=O)N[C@@H](CC(C)C)C(=O)N2CCC[C@@H]2C(=O)O[C@@H]1C | -5.10 | -4.97 |
| CC(=O)N1CCC[C@H]1C(=O)N(C)[C@@H](CC(C)C)C(=O)N[C@@H]1C(=O)N[C@H](CC(C)C)C(=O)N(C)[C@H](CC(C)C)C(=O)N[C@H](CC(C)C)C(=O)N(C)[C@@H](C)C(=O)N[C@H](CC(C)C)C(=O)N2CCC[C@H]2C(=O)O[C@@H]1C | -5.27 | n/a |
| CC(=O)N1CCC[C@H]1C(=O)N(C)[C@@H](CC(C)C)C(=O)N[C@@H]1C(=O)N[C@@H](CC(C)C)C(=O)N(C)[C@@H](CC(C)C)C(=O)N[C@@H](CC(C)C)C(=O)N(C)[C@H](C)C(=O)N[C@H](CC(C)C)C(=O)N2CCC[C@@H]2C(=O)O[C@@H]1C | -5.49 | n/a |

Extract of 2 entries:

SMILES	PAMPA (log10 cm/s)	MDCK (log10 cm/s)
CC(=O)N1CCC[C@H]1C(=O)N(C)[C@@H](CC(C)C)C(=O)N[C@@H]1C(=O)N[C@H](CC(C)C)C(=O)N(C)[C@H](CC(C)C)C(=O)N[C@H](CC(C)C)C(=O)N(C)[C@@H](C)C(=O)N[C@H](CC(C)C)C(=O)N2CCC[C@H]2C(=O)O[C@@H]1C	-5.27	n/a
CC(=O)N1CCC[C@H]1C(=O)N[C@@H]1C(=O)N[C@H](CC(C)C)C(=O)N(C)[C@@H](CC(C)C)C(=O)N(C)[C@@H](CC(C)C)C(=O)N(C)[C@H](CC(C)C)C(=O)N(C)[C@H](C)C(=O)N[C@@H](CC(C)C)C(=O)N2CCC[C@@H]2C(=O)O[C@@H]1C	-5.09	n/a